The values that follow are results of earlier work, collected in PMC9824695, “A Novel Multi-Target Mu/Delta Opioid Receptor Agonist, HAGD, Produced Potent Peripheral Antinociception with Limited Side Effects in Mice and Minimal Impact on Human Sperm Motility In Vitro” (Molecules, 2023).

The subject of this data set is opioid receptors. As to conditions: cited from earlier work.

On to `C=CCN1CC[C@]23c4c5ccc(O)c4O[C@H]2C(=O)CC[C@@]3(O)[C@H]1C5` [naloxone], for which the “Antagonist (receptors)” value was “MOR DOR KOR”. As for `CN1CC[C@]23c4c5ccc(O)c4O[C@H]2[C@@H](O)C=C[C@H]3[C@H]1C5` [morphine], the “Agonist (receptors)” value is “MOR DOR KOR”.
